Screening results deposited in PubChem BioAssay by Broad Institute.
This is a sample that favours compounds with a hit; in the whole collection about 1.5% have one here.
INS-1E GSIS act: GLuc luminescence reporter in INS-1E cells, primary screen for activators of glucose-dependent secretion of insulin | INS-1E GLuc reporter insulin secretion, 2-3 h | activation, % at 16.6 µM | 370,000 tested, 0.61% active;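 active = lowest replicate activation of at least 40%, so every replicate reaches that level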
UUG fidelity: alters start codon recognition fidelity in yeast; AID 602363; activity score, % at 18.7 µM; 350,000 tested, 0.13% active; S. cerevisiae UUG-firefly luciferase reporter, luminescence/redox ratio;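 active means replicate mean at a twofold rise or more, about +100% in these data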;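 further: firefly luciferase made from a UUG start codon reports start codon fidelity; reporter light over untreated wells divided by growth signal over untreated wells; some hits fall short of that in this replicate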
Casp6 inh: caspase-6 (human) enzyme inhibition | P55212 | purified caspase-6, Z-VEID-R110 cleavage fluorescence | inhibition, % at 12.5 µM | 350,000 tested, 0.53% active | AID 686996;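 active = mean inhibition across replicates at least about 35%, with every replicate also reaching that limit, limit read from the data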
PglD DTNB: inhibitors of Campylobacter jejuni PglD acetyltransferase; 360,000 tested, 0.098% active; purified PglD enzyme, DTNB colorimetric CoA detection; AID 602405; inhibition, % at 12.5 µM; in the data active = inhibition above about 16%, passing the limit was not always enough
RAD54 branch: blocks human RAD54 Holliday junction branch migration; Q92698; FAM/BHQ fluorescence; inhibition, % at 10.4 µM; 360,000 tested, 0.14% active;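 active = mean normalized replicate activity at least 40 and at least half of replicates scoring 40 or more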;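 also: inhibitors cause a drop in the FAM fluorescence signal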
RAD52 anneal inh: RAD52 (human) annealing inhibition; recombinant RAD52 DNA annealing, FRET fluorescence; inhibition, % at 18.7 µM; 360,000 tested, 0.46% active; AID 651710;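 active = every replicate showing at least 50% inhibition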
Of the large screens only hits and unclear results are named; the others gave an inactive call; ! = not active in a repeat.

COc1ccc(NC(=O)Nc2nnc(-c3cccs3)s2)cc1	none (no result: UUG fidelity, PglD DTNB, RAD54 branch)
COc1ccc(C(=O)Nc2nnc(-c3cccs3)s2)cc1	INS-1E GSIS act 71.8 (no result: Casp6 inh, RAD52 anneal inh)
O=C(Nc1nnc(-c2ccco2)s1)c1ccccc1	none (no result: Casp6 inh, RAD52 anneal inh)
COc1ccc(C(=O)Nc2nnc(-c3ccco3)s2)cc1	INS-1E GSIS act 51.8 (no result: Casp6 inh, RAD52 anneal inh)
O/N=C(\COc1ccccc1O)c1ccccc1	none (no result: UUG fidelity, Casp6 inh, PglD DTNB, RAD54 branch, RAD52 anneal inh)
COc1ccc(C#Cc2ccc([C@@H]3[C@H]4CN(C(=O)Nc5ccccc5)CCCCN4[C@H]3CO)cc2)cc1	none
C=CCn1cnc2scc(-c3ccc(OC)cc3)c2c1=O	INS-1E GSIS act 61.4
CN(CC(=O)Nc1ccc2c(c1)OCO2)S(=O)(=O)c1ccc(F)cc1	none
C/C=C/c1ccc([C@@H]2[C@H](CO)N(C(=O)C3CCC3)C23CN(S(=O)(=O)CC)C3)cc1	none (no result: UUG fidelity, PglD DTNB, RAD54 branch)
C/C=C/c1ccc([C@@H]2[C@H](CO)N(C(=O)C3CCCC3)C23CN(S(C)(=O)=O)C3)cc1	Casp6 inh 57.7 (no result: UUG fidelity, PglD DTNB, RAD54 branch)
COc1cc(CCC(C)=O)ccc1OC(=O)c1c(F)cccc1Cl	none (no result: INS-1E GSIS act)
N=C1S/C(=C\c2ccco2)C(=O)N1c1nccs1	Casp6 inh 36.5
O=C(Nc1nc2ccccc2n1CCOc1ccc(Cl)cc1)c1ccco1	none (no result: INS-1E GSIS act)
O=C(Nc1nc2ccccc2n1Cc1ccc(Cl)cc1)c1ccco1	INS-1E GSIS act 47.5 (no result: UUG fidelity, Casp6 inh, PglD DTNB, RAD54 branch, RAD52 anneal inh)
CCOc1cccc2cc(C(=O)Nc3cc(C)on3)c(=O)oc12	INS-1E GSIS act 45.1 (no result: Casp6 inh, RAD52 anneal inh)
CCOc1cccc2cc(C(=O)Nc3ccccc3-c3ccccc3)c(=O)oc12	none (no result: INS-1E GSIS act, Casp6 inh, RAD52 anneal inh)
CCOC(=O)C1=C(CSCc2ccccc2)NC(=O)NC1c1cc(C)ccc1C (configuration not stated)	none (no result: INS-1E GSIS act, Casp6 inh, RAD52 anneal inh)
O=[N+]([O-])c1cccc(-c2nc(-c3cccs3)c(-c3cccs3)[nH]2)c1	none (no result: INS-1E GSIS act, Casp6 inh, RAD52 anneal inh)
O=[N+]([O-])c1cccc(-c2nc(-c3ccccc3)c(-c3cccs3)[nH]2)c1	INS-1E GSIS act 48.3 (no result: Casp6 inh, RAD52 anneal inh)
CCC1CCc2sc(C(=O)NNC(=O)c3ccncc3)cc2C1 (configuration not stated)	Casp6 inh 58.6 (no result: UUG fidelity, PglD DTNB, RAD54 branch)
Cc1nc(NC(C)(C)CO)c([N+](=O)[O-])cc1[N+](=O)[O-]	none
Cc1ccc(S(=O)(=O)Nc2ccc3cn[nH]c3c2)cc1C	none (no result: INS-1E GSIS act)
O=C(O)c1cc(S(=O)(=O)Nc2ccc3cn[nH]c3c2)ccc1O	Casp6 inh 60.2
O=C(O)c1ccc(Cl)c(S(=O)(=O)Nc2ccc3cn[nH]c3c2)c1	Casp6 inh 37.4 (no result: UUG fidelity, PglD DTNB, RAD54 branch)
O=[N+]([O-])c1ccc(Cl)c(S(=O)(=O)Nc2ccc3cn[nH]c3c2)c1	none
CCCCN(CC)C(=O)C1CCC(CNS(=O)(=O)c2cccc3nsnc23)CC1 (configuration not stated)	none
CC1=C(/C=C/C(C)=C/C=C/C(C)=C/C(=O)Nc2ccc(O)cc2)C(C)(C)CCC1	INS-1E GSIS act 152.7
Cc1c(NC(=O)c2cc(-c3ccc(F)cc3)nc3ccccc23)c(=O)n(-c2ccccc2)n1C	none (no result: UUG fidelity, PglD DTNB, RAD54 branch)
Nc1nc(N)nc(-c2ccc(Cl)c(Cl)c2)n1	none
CC(CC(=O)Nc1ccc2c(c1)c(=O)n(C)n2-c1cccs1)c1ccccc1 (configuration not stated)	Casp6 inh 36.7
COc1ccc(-c2ccc(=O)n(CC(=O)Nc3cccc(O)c3)n2)cc1OC	INS-1E GSIS act 117.1 (no result: Casp6 inh, RAD52 anneal inh)
O=c1nc2ccc(Cl)cn2c2ccc(S(=O)(=O)N3CCCCC3)cc12	Casp6 inh 91.6
COc1ccc2c(c1)oc(=O)c1cc(OC)ccc12	none
COc1cc(O)c2c(c1)oc(=O)c1c3cc(O)c(O)cc3oc21	Casp6 inh 76.7, RAD52 anneal inh 77.4 (no result: INS-1E GSIS act, UUG fidelity, PglD DTNB, RAD54 branch)
CCC(C)Sc1cccc(-c2nc3cnccn3c2NC2CCCCC2)c1 (configuration not stated)	INS-1E GSIS act 169.7
CN(C(=O)c1ccc(Cl)cc1)c1ccc(OCC(=O)Nc2cc(C(=O)O)ccc2Cl)cc1	Casp6 inh 36.4 (no result: UUG fidelity, PglD DTNB, RAD54 branch)
CCC(=O)Nc1ccc(Cl)c(NC(=S)NC(=O)COc2ccc(Cl)cc2)c1	INS-1E GSIS act 43.9 (no result: UUG fidelity, Casp6 inh, PglD DTNB, RAD54 branch, RAD52 anneal inh)
C[C@H](CO)N1C[C@H](C)[C@H](CN(C)S(=O)(=O)c2ccccc2)OCCCC[C@H](C)Oc2ccc(NC(=O)c3ccncc3)cc2C1=O	none
Cc1occc1C(=O)N1CCN(S(=O)(=O)c2ccc(F)cc2)CC1	none (no result: INS-1E GSIS act)
COc1ccc(/C=C2\CCOC2=O)cc1	none (no result: INS-1E GSIS act, Casp6 inh, RAD52 anneal inh)
COc1ccc(/C=C2/C(=O)OCc3cc(OC)c(OC)cc32)cc1	INS-1E GSIS act 112.6 (no result: UUG fidelity, Casp6 inh, PglD DTNB, RAD54 branch, RAD52 anneal inh)
CCOC(=O)N1CCN(C(C(=O)NC2CCCC2)C(C)C)CC1 (configuration not stated)	Casp6 inh 38.3 (no result: UUG fidelity, PglD DTNB, RAD54 branch)
Cc1ccc(NC(=O)CN2C(=O)S/C(=C\c3cc(C)n(-c4cccc(C(=O)O)c4)c3C)C2=O)cc1	Casp6 inh 39.3 (no result: UUG fidelity, PglD DTNB, RAD54 branch)
COc1ccc(/C=C2\SC(=O)N(CCC(=O)Nc3ccccc3)C2=O)cc1OC	INS-1E GSIS act 53.2 (no result: UUG fidelity, Casp6 inh, PglD DTNB, RAD54 branch, RAD52 anneal inh)
COc1ccc(-n2c(C)cc(/C=C3/SC(=O)N(CC(=O)N4CCOCC4)C3=O)c2C)cc1	none (no result: UUG fidelity, PglD DTNB, RAD54 branch)
Cc1cc(/C=C2/SC(=O)N(CC(=O)N3CCOCC3)C2=O)c(C)n1-c1ccccc1F	INS-1E GSIS act 51.5 (no result: UUG fidelity, PglD DTNB, RAD54 branch)
COc1ccc(/C=C2\SC(=O)N(CCCC(=O)Nc3ccc(C(=O)O)cc3)C2=O)cc1OC	none
Cc1ccc(NC(=O)CN2C(=O)S/C(=C\c3ccc(C(=O)O)cc3)C2=O)cc1	Casp6 inh 43.3
C[C@H]1CN([C@@H](C)CO)S(=O)(=O)c2ccc(-c3ccncc3)cc2O[C@H]1CN(C)C(=O)Nc1ccc(F)cc1	none
CC(C)(C)c1ccc(NC(=O)c2ccc3c(c2)S(=O)(=O)c2ccccc2C3=O)cc1	none
COc1ccc(NC(=O)CN(C)C(=O)CSCc2ccc(C)cc2)cc1	none (no result: UUG fidelity, PglD DTNB, RAD54 branch)
COc1ccc(/C=C2\C(=N)N3N=C(CC(=O)N4CCOCC4)SC3=NC2=O)cc1	none
Cc1ccc(/C=C2\C(=N)N3N=C(CC(=O)N4CCOCC4)SC3=NC2=O)o1	Casp6 inh 37.8
CC(C(=O)NC1CCCC1)N(C(=O)Cn1nnc(-c2ccc(F)cc2)n1)c1ccccc1F (configuration not stated)	none
COc1ccccc1S(=O)(=O)N[C@@H]1C=C[C@@H](CC(=O)N2CCOCC2)O[C@H]1CO	Casp6 inh 52.6
Cc1cccc(S(=O)(=O)N2C[C@@H]3N[C@H](C2)C3c2ccc(-c3ccncc3)cc2)c1 (some centres not stated)	none (no result: UUG fidelity, PglD DTNB, RAD54 branch)
Cc1cccc(S(=O)(=O)N2C[C@@H]3N[C@H](C2)C3c2ccc(-c3cccnc3)cc2)c1 (some centres not stated)	none (no result: UUG fidelity, PglD DTNB, RAD54 branch)
COc1ccc(-c2ccc(C3[C@@H]4CN(S(=O)(=O)c5cccc(C)c5)C[C@H]3N4)cc2)cc1 (some centres not stated)	RAD52 anneal inh 70.7! (no result: UUG fidelity, PglD DTNB, RAD54 branch)
COc1cccc(S(=O)(=O)N2C[C@@H]3N[C@H](C2)C3c2ccc(-c3cccc(C)c3)cc2)c1 (some centres not stated)	RAD52 anneal inh 56.7! (no result: UUG fidelity, PglD DTNB, RAD54 branch)
